Experiments:
CXCR4 [1] = target: T1, CXCR4 (Homo sapiens, UniProt P61073); assay: Calcium mobilization assay (FLIPR Tetra) in U87.CD4.CXCR4 cells; type: cell-based; settings: read-out: IC50 Calcium signaling (CXCL12-induced)
CXCR4 [2] = target: T1, CXCR4; assay: CXCL12^AF647 binding assay on Jurkat cells
CXCR4 [3] = target: T1, CXCR4; assay: CXCR4 internalization assay in SUP-T1 cells; type: cell-based; set-up: CXCR4 receptors endogenously expressed on SUP-T1 cells; endogenous in cells; host or cells: SUP-T1 (ATCC)

Amino acid sequences for entries named in this document (tags omitted).
UniProt P61073, whole entry: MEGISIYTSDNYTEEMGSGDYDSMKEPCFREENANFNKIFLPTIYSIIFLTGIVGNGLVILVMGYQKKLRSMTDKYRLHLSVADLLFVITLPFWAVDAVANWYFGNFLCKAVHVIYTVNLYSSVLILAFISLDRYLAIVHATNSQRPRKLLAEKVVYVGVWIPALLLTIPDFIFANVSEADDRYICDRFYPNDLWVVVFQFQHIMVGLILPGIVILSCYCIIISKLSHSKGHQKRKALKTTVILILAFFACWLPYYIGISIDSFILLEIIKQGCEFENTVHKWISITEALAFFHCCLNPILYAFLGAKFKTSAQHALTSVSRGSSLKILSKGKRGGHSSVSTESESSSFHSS

NCCCCN(Cc1nc2ccccc2[nH]1)[C@H]1CCCc2cccnc21 [AMD11070]
IC50 (CXCR4 [1]): 12.3 ± 1.7 nM | IC50 (CXCR4 [2]): 0.67 ± 0.1 nM | IC50 (CXCR4 [3]): 70.5 ± 13.1 nM
